Paper PMC8201645 (2020)

Tests used:
PPARγ = PPARγ (Homo sapiens, UniProt P37231); conditions: for PPARγ % replacement: at 30 μM, TR-FRET competitive binding
PPARδ = molecular target: T1, PPARδ (Homo sapiens, UniProt Q03181); conditions: at 30 μM; TR-FRET competitive binding
T1 sequence (Q03181 171-441 limits assumed): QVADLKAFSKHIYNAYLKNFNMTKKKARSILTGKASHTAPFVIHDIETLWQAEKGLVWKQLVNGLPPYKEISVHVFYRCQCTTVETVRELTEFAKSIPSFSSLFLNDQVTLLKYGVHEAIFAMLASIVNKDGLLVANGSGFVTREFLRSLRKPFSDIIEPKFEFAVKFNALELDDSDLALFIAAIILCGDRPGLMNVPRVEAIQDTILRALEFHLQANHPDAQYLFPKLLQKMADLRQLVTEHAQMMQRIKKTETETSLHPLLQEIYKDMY

[1] = molecular target: PPARδ ligand-binding domain; experiment: FRET or BRET

Molecule	PPARγ % replacement (PPARγ) [% at 30 μM]	PPARδ % replacement (PPARδ) [% at 30 μM]	further results
O[C@@H]1[C@H](O)CS[C@H]1Cn1cnc2c(NCc3cccc(F)c3)ncnc21 [4e, (2S,3R,4S)-2-((6-((3-Fluorobenzyl)amino)-9H-purin-9-yl)methyl)-tetrahydrothiophene-3,4-diol]	24.4	–	–
O[C@@H]1[C@H](O)CO[C@H]1Cn1cnc2c(NCc3cccc(Br)c3)ncnc21 [4s, (2S,3R,4R)-2-((6-((3-Bromobenzyl)amino)-9H-purin-9-yl)methyl)-tetrahydrofuran-3,4-diol]	–	16.5	–
CC#Cc1nc(NCc2cccc(I)c2)c2ncn(C[C@@H]3SC[C@@H](O)[C@H]3O)c2n1 [4l, (2S,3R,4S)-2-((6-((3-Iodobenzyl)amino)-2-(prop-1-yn-1-yl)-9H-purin-9-yl)methyl)tetrahydrothiophene-3,4-diol]	–	15.9	–
CC#Cc1nc(NCc2cccc(Cl)c2)c2ncn(C[C@@H]3SC[C@@H](O)[C@H]3O)c2n1 [4j, (2S,3R,4S)-2-((6-((3-Chlorobenzyl)amino)-2-(prop-1-yn-1-yl)-9H-purin-9-yl)methyl)tetrahydrothiophene-3,4-diol]	41.7	–	maximum binding efficacy relative to GW1929 (PPARγ full agonist) (PPARγ; of GW1929): around 40%
O[C@@H]1[C@H](O)CS[C@H]1Cn1cnc2c(NCc3cccc(I)c3)ncnc21 [4h, (2S,3R,4S)-2-((6-((3-Iodobenzyl)amino)-9H-purin-9-yl)methyl)-tetrahydrothiophene-3,4-diol]	39.2	–	–
fluorescein-labeled SMRT-ID2 corepressor peptide	–	–	EC50 of compound 4p (compound concentration) for binding of the peptide [1]: 20.2 µM; EC50 of compound 4d (compound concentration) for binding of the peptide [1]: 12.5 µM
O[C@@H]1[C@H](O)CS[C@H]1Cn1cnc2c(NCc3cccc(Br)c3)ncnc21 [4g, (2S,3R,4S)-2-((6-((3-Bromobenzyl)amino)-9H-purin-9-yl)methyl)-tetrahydrothiophene-3,4-diol]	33.5	–	–
O[C@@H]1[C@H](O)CO[C@H]1Cn1cnc2c(NCc3cccc(F)c3)ncnc21 [4q, (2S,3R,4R)-2-((6-((3-Fluorobenzyl)amino)-9H-purin-9-yl)methyl)-tetrahydrofuran-3,4-diol]	13.3	14.6	–
O[C@@H]1[C@H](O)CS[C@H]1Cn1cnc2c(NCc3cccc(Cl)c3)ncnc21 [4f, (2S,3R,4S)-2-((6-((3-Chlorobenzyl)amino)-9H-purin-9-yl)methyl)-tetrahydrothiophene-3,4-diol]	24.9	–	–
O[C@@H]1[C@H](O)CS[C@H]1Cn1cnc2c(NCc3cccc(Cl)c3)nc(Cl)nc21 [4b, (2S,3R,4S)-2-((2-Chloro-6-((3-chlorobenzyl)amino)-9H-purin-9-yl)methyl)tetrahydrothiophene-3,4-diol]	34.1	–	–
O[C@@H]1[C@H](O)CO[C@H]1Cn1cnc2c(NCc3cccc(Cl)c3)ncnc21 [4r, (2S,3R,4R)-2-((6-((3-Chlorobenzyl)amino)-9H-purin-9-yl)methyl)-tetrahydrofuran-3,4-diol]	–	10.6	–
CC#Cc1nc(NCc2cccc(Br)c2)c2ncn(C[C@@H]3SC[C@@H](O)[C@H]3O)c2n1 [4k, (2S,3R,4S)-2-((6-((3-Bromobenzyl)amino)-2-(prop-1-yn-1-yl)-9H-purin-9-yl)methyl)tetrahydrothiophene-3,4-diol]	–	15.3	–
CC#Cc1nc(NCc2cccc(F)c2)c2ncn(C[C@@H]3SC[C@@H](O)[C@H]3O)c2n1 [4i, (2S,3R,4S)-2-((6-((3-Fluorobenzyl)amino)-2-(prop-1-yn-1-yl)-9H-purin-9-yl)methyl)tetrahydrothiophene-3,4-diol]	–	13.8	–
